This assay deals with human NR1/NR2A (Homo sapiens (Human), UniProt Q12879). Briefly: NR2A activity (Fluo-4 calcium influx assay). It is filed as cell-based. To be noted: read-out: NR2A IC50; HEK293 cells stably expressing human NR1/NR2A; glutamate 100 μM, glycine 50 μM.

By UniProt entry, the sequences of proteins in these tests, tags left out. Residues count along the entry.
UniProt Q12879, 23-1464 limits assumed: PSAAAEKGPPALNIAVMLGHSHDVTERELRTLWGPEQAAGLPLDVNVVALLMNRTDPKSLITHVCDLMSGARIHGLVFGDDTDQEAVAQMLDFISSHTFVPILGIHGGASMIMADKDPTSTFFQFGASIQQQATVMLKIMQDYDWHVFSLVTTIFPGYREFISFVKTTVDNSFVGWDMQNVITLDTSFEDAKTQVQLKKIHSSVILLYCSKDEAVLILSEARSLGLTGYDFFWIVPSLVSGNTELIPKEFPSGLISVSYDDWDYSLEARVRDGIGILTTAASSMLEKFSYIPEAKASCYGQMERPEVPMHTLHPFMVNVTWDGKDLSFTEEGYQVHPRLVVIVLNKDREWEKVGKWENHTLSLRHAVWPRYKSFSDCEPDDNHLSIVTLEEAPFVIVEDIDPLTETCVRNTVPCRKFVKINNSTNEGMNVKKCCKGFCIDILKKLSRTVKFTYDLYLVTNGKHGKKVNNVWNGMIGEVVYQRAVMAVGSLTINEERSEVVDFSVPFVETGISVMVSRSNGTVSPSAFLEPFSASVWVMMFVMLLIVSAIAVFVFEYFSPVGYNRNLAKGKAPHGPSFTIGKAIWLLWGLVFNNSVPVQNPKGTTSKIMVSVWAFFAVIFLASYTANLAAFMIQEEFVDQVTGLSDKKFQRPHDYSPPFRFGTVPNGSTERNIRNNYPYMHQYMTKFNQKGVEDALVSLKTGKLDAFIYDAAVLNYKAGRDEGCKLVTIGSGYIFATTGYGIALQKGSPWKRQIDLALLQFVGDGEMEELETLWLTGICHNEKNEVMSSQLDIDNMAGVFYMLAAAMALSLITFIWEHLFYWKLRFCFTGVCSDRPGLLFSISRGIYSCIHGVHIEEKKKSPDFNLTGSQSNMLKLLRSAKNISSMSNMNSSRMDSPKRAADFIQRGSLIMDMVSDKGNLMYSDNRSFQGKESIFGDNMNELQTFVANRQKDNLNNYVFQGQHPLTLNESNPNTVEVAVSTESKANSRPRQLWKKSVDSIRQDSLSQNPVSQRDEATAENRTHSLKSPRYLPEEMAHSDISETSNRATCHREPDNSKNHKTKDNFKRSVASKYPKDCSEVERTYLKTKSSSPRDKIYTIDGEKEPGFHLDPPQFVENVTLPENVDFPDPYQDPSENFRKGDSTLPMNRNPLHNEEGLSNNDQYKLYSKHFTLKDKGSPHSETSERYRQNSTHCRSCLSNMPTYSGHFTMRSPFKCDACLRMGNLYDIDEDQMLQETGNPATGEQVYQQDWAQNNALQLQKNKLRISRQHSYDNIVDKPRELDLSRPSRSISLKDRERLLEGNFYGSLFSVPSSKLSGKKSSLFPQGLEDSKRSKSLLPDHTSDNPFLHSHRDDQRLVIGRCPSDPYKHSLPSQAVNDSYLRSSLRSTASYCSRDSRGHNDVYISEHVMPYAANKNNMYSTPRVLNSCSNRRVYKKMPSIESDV

Only a part of the results on these compounds is given; other tests are left out.

Regarding “N-(1-(2,2-difluoro-2-(pyridin-2-yl)ethyl)piperidin-4-yl)-7H-pyrrolo[2,3-d]-pyrimidin-4-amine”, the IC50 (as a rule, the concentration that inhibits the measured activity by half) was over 10 µM.

These data come from US9567341B2, “Pyrrolopyrimidine derivatives as NR2B NMDA receptor antagonists” (Rugen Holdings (Cayman) Limited, priority 2014, dated 2017).
